Assay results: patent US10722520B2, “Heterocyclic compounds and their use in preventing or treating bacterial infections” (MUTABILIS, priority 2016, dated 2020)
Where two headings read alike, the source gives them in different places.

The chains behind the UniProt entries cited, without tags or fusion partners. Residues count along the entry.
UniProt P05364, 21-381: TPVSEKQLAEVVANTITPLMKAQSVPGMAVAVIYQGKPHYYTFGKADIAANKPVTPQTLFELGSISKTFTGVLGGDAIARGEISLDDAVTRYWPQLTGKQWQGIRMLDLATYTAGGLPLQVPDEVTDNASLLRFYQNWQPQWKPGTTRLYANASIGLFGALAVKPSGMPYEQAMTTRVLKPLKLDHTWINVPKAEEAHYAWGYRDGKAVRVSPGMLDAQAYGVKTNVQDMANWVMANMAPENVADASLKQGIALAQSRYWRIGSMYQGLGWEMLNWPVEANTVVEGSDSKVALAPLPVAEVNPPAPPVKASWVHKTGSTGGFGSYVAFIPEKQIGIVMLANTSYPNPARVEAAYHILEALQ
UniProt P05193, 21-381 limits assumed: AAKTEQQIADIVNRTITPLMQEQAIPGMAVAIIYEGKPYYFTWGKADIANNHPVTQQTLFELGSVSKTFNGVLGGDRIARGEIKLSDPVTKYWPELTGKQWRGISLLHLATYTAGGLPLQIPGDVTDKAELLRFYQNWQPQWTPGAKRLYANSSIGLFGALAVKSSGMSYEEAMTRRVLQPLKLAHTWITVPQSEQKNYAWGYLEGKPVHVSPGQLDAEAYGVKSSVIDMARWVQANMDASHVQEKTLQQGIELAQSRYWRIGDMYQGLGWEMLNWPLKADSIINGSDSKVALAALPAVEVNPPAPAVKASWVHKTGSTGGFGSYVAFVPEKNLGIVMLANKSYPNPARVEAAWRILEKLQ
UniProt P24735, 27-397: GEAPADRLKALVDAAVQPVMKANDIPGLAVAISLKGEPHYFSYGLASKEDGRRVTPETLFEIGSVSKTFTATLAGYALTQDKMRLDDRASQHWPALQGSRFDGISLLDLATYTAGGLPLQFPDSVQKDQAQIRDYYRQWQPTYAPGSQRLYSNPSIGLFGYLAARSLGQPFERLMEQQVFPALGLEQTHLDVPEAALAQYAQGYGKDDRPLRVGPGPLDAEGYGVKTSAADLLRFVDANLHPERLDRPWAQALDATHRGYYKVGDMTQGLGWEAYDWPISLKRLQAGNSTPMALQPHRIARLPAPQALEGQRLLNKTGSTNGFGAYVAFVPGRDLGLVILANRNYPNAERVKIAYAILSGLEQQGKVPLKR

Legend:
AmpC (P99) = AmpC (P99) (Enterobacter cloacae, UniProt P05364); conditions: read-out: IC50 β-lactamase AmpC (P99); class (C); nitrocefin 200 μM, 30-min pre-incubation, enzyme 0.2 nM
CMY-37 = CMY-37 (Citrobacter freundii, UniProt P05193); conditions: read-out: IC50 β-lactamase CMY-37
AmpC (PAE) = AmpC (PAE) (Pseudomonas aeruginosa, UniProt P24735); conditions: read-out: IC50 β-lactamase AmpC (PAE); class (C); nitrocefin 200 μM, 30-min pre-incubation, enzyme 0.4 nM
[1] = class (C), nitrocefin 200 μM, 30-min pre-incubation, enzyme 0.2 nM

Compound | IC50 (AmpC (P99)) [µM] | IC50 (CMY-37; [1]) [µM] | IC50 (AmpC (PAE)) [µM] | IC50 (CMY-37) [µM]
sodium (7-oxo-3-(3-(methoxycarbamoyl)-pyrazol-1-yl)-1,6-diazabicyclo[3.2.1]oct-3-en-6-yl) sulfate and sodium (7-oxo-3-(5-(methoxycarbamoyl)-pyrazol-1-yl)-1,6-diazabicyclo[3.2.1]oct-3-en-6-yl) sulfate [Example 27] | 0.033 | 0.028 | 0.35 | –
O=C1N2CC(n3ccc([C@H](O)CO)n3)=CC(C2)N1OS(=O)(=O)[O-].[Na+] (stereo partly drawn) [Example 76, sodium [3-[3-[(1S)-1,2-dihydroxyethyl]pyrazol-1-yl]-7-oxo-1,6-diazabicyclo[3.2.1]oct-3-en-6-yl]sulfate] | – | – | – | 0.028
O=C(Nc1cc[nH]n1)c1ccn(C2=CC3CN(C2)C(=O)N3OS(=O)(=O)[O-])n1.[Na+] (stereo not shown) [Example 85, sodium [7-oxo-3-[3-(pyrazol-3-ylcarbamoyl)pyrazol-1-yl]-1,6-diazabicyclo[3.2.1]oct-3-en-6-yl]sulfate] | – | – | – | 0.014
O=C(c1ccn(C2=CC3CN(C2)C(=O)N3OS(=O)(=O)[O-])n1)N1CCOCC1.[Na+] (stereo not shown) [Example 31, sodium (7-oxo-3-[3-(morpholine-4-carbonyl)pyrazol-1-yl]-1,6-diazabicyclo[3.2.1]oct-3-en-6-yl) sulfate] | – | – | – | 0.028
sodium [3-[3-[2-[tert-butyl(dimethyl)silyl]oxyethyl]pyrazol-1-yl]-7-oxo-1,6-diazabicyclo[3.2.1]oct-3-en-6-yl]sulfate [Example 69] | 0.018 | 0.014 | 0.057 | –
O=C1N2CC(n3ccc(CO)n3)=CC(C2)N1OS(=O)(=O)O (stereo not shown) [Example 12, triethylammonium [3-[3-(hydroxymethyl)pyrazol-1-yl]-7-oxo-1,6-diazabicyclo[3.2.1]oct-3-en-6-yl]sulfate] | – | 0.014 | – | –
